Values of other authors in Sander's compilation of Henry's law constants (doi:10.1021/cr60306a003).

Assay: Henry solubility constant Hcp at 298.15 K (mol/(m3 Pa))
Settings: reference: Wilhelm et al. (1977); cited value

Henry solubility constant Hcp: 0.001
Compound: CCl [chloromethane]
